Source: patent US20170246137A1, “SULFESTROL FOR TREATING CANCER” (CHAMAELEO PHARMA BVBA, priority 2012, published 2017)

What was measured:
Assay in all cases: In vitro direct cytotoxicity, Cell titer Blue viability, 72 hrs
LNCaP = assay type: cell-based
Experimental: (§1) Cells were harvested, washed, re-suspended into growth medium and counted.
(§2) Stocks of all compounds were then serially diluted. […] Positive control was Taxotere. Taxotere was diluted in 100% DSMO to give a stock concentration of 1 mM. Stock was serially diluted. Final concentrations to which cells were exposed were 1000, 333.3, 111.1, 37.0, 12.3, 4.1, 1.4, 0.5, and 0.2 nM.

DU-145 = assay type: cell-based
Experimental: as §1, §2

MDA-MB-231 = details: MDA-MB231
Experimental: (§3) Cells were maintained in vitro in RPMI 1640 containing 10% (v/v) heat inactivated FBS and 2 mM L-glutamine (growth media) at 37° C. in 5% CO2 and humidified conditions. Cells were harvested, washed, resuspended into growth medium and counted. The cells were re-suspended into assay media (RPMI 1640+1% (v/v) heat inactivated FBS+ and 2 mM L-glutamine) at 0.5-1×10^5 cells/ml (dependent upon cell type) and plated into 96-well assay plates (Corning, black-wall plates) in 50 ul/well aliquots.
(§4) Plates were incubated overnight at 37° C. in 5% humidified CO2 prior to addition of the compounds. […] Stocks of all compounds were then serially diluted. Final concentrations to which cells were exposed were 300, 150, 75, 37.5, 18.75, 9.4, 4.7, 2.3, 1.2, 0.6 μM. Positive control was Cisplatin. Cisplatin was diluted in 1% FBS media to give a stock concentration of 1 mM. Cisplatin stock was then serially diluted. Final concentrations to which cells were exposed were 100, 50, 25, 12.5, 6.3, 3.1, 1.6, 0.8, 0.4, 0.2 μM.
(§5) Plates were incubated for 72 hrs at 37° C. in 5% humidified CO2 after addition of the compounds. Viability of the cells was assessed with the Cell titer Blue™ (Promega) assay. 10 μl of Cell titer Blue™ reagents was added to each test/blank well. Plates were incubated 3 h at 37° C. in 5% humidified CO2 prior to analysis. Fluorescence was measured with a Flex II station plate reader. […]

MCF7 = system: MCF7
Experimental: as §3, §4, §5

Measured: cytotoxicity in vitro (in words)

4,4′-(hex-3-ene-3,4-diyl)bis(4,1-phenylene) disulfate [Di-Sulfestrol]
inactive: LNCaP | DU-145 | MDA-MB-231 | MCF7
